Source: PMC8931498, “Drug Transporters ABCB1 (P-gp) and OATP, but not Drug-Metabolizing Enzyme CYP3A4, Affect the Pharmacokinetics of the Psychoactive Alkaloid Ibogaine and its Metabolites” (Frontiers in Pharmacology, 2022)
Several values for one entry are separate records, joined by “and”; a condition that tells them apart may be missing. Identical values can stand only once.

Columns and labels:
[1] = Plasma pharmacokinetics over 2 h after oral ibogaine in wild-type, Abcg2-/- and Abcb1a/1b;Abcg2-/- mice; assay type: in vivo; conditions: oral 10 mg/kg ibogaine; for Cmax / Tmax / AUC0-2h: plasma; for Cmax / Tmax: 2 h experiment; for Cmax / AUC0-2h: mean ± SD; for Tmax: median (range); for AUC0-2h: n = 7
Procedure: (§1) To study the influence of drug uptake and efflux transporters on the pharmacokinetics of ibogaine and its metabolites, we conducted a 2 h experiment, while for the assessment of CYP3A impact, the experiments were terminated at 8 h. In each experiment, six to seven mice were used per strain. Ibogaine dissolved in DMSO:saline vehicle (1:9, v/v) was orally administered to the mice by gavage into the stomach, using a blunt-ended needle, at a single dose of 10 mg/kg (10 μL/g body weight). To reduce variation in absorption upon oral administration, mice were fasted for 2–3 h before dosing. Approximately 50 μL of blood was collected from the tip of the tail in heparinized capillary tubes (Sarstedt AG & Co., Nümbrecht, Germany) at 0.125, 0.25, 0.5 and 1 h (2 h experiment), or 0.25, 0.5, 1, 2, and 4 h (8 h experiment). For the 8 h experiment, 2 h after ibogaine administration, mice had ad libitum supply of standard chow and water again. At either 2 or 8 h after dosing, mice were deeply anesthetized with isoflurane (3%), followed by cardiac puncture to collect blood (at least 600 μL) in Eppendorf tubes using heparin as an anticoagulant. The mice were then sacrificed by cervical dislocation, and tissues including the brain, liver (without gallbladder), kidneys, spleen, small intestine together with the fecal content (SIWC), heart, and subcutaneous inguinal white adipose tissue were collected and weighed. For the 2 h experiment, the gallbladder with content was also (separately) collected in an Eppendorf tube and weighed. Plasma was obtained from blood samples by centrifugation at 9,000 g for 6 min at 4 °C. Tissue homogenates (except gallbladder) were obtained using the Fast Prep-24 5G homogenizer (MP Biomedicals Inc., Santa Ana, CA, United States). Before homogenization, Bovine Serum Albumin (BSA, Fraction V) was dissolved at a concentration of 2% (w/v) in distilled water. Three mL of ice-cold 2% BSA were added to liver and SIWC; 2 ml to kidneys; 1 ml to brain, spleen, and heart; and 2–3 ml to the white adipose tissue (depending on the tissue weight). For the gallbladder, 150 μL of 2% BSA was added; then, the samples were centrifuged (9,000 x g, 4°C, 6 min), and only the supernatant was collected for analysis. Both plasma and tissue samples were kept at −70°C in amber-colored Eppendorf tubes until analysis.
(§2) Ibogaine, noribogaine, and noribogaine glucuronide concentrations in plasma and tissue samples were determined using a liquid chromatography with tandem mass spectrometry (LC-MS/MS) method, validated for human plasma, mouse plasma, and mouse tissues. Since the concentration of ibogaine and its metabolites can rapidly decline at room temperature with daylight exposure, special attention was paid during sample handling to avoid photodegradation of the compounds.
(§3) A volume of 50 µL human plasma sample, a 5-fold diluted mouse plasma sample (10 uL + 40 uL control human plasma), or 100 µL homogenized tissue sample were processed. For the quantification, stable isotope labelled internal standards (IS) Ibogaine-^13C-d3 (for ibogaine) and Noribogaine-d4 (for noribogaine and noribogaine glucuronide) were used. To the 50 uL plasma samples, 20 uL of a working solution containing both internal standards at a concentration of 10 ng/ml in methanol (WIS10) was added. Sample pre-treatment involved protein precipitation with 150 uL of acetonitrile-methanol (1:1, v/v). For the tissue homogenates (100 uL sample aliquots), 40 uL of WIS10 was added, and 300 uL precipitation reagent as sample cleanup. After centrifuging the samples (10 min, 4°C, 15,000 x g), 100 µL of the supernatant was transferred to an amber-colored autosampler vial with insert. Then 100 µL of 4 mM ammonium formate pH 3.5 in water was added, and after vortex mixing, the extracts were injected (5 uL) onto a UPLC system (Acquity UPLC I-Class IVD system, Waters, Milford, MA, United States) equipped with an Acquity UPLC HSS T3 Column (150 × 2.1 mm ID, 1.8 µm). […]

[2] = Plasma pharmacokinetics over 2 h after oral ibogaine in wild-type, Oatp1a/1b-/-, Oatp1a/1b-/-;1B1tg and Oatp1a/1b-/-;1B3tg mice; assay type: in vivo; conditions: oral 10 mg/kg ibogaine; for Cmax / Tmax / AUC0-2h: plasma; for Cmax / Tmax: 2 h experiment; for Cmax / AUC0-2h: mean ± SD; for Tmax: median (range); for AUC0-2h: n = 7
Procedure: as §1, §2, §3

[3] = Tissue distribution 2 h after oral ibogaine in wild-type, Abcg2-/- and Abcb1a/1b;Abcg2-/- mice; assay type: in vivo
Procedure: as §1, §2, §3

[4] = Tissue accumulation 2 h after oral ibogaine in wild-type and Oatp1a/1b-deficient mouse strains; assay type: in vivo; conditions: Oatp1a/1b-/- mice compared to WT; tissue concentration relative to plasma AUC0-2h; oral 10 mg/kg ibogaine
Procedure: To study the influence of drug uptake and efflux transporters on the pharmacokinetics of ibogaine and its metabolites, we conducted a 2 h experiment, while for the assessment of CYP3A impact, the experiments were terminated at 8 h. In each experiment, six to seven mice were used per strain. Ibogaine dissolved in DMSO:saline vehicle (1:9, v/v) was orally administered to the mice by gavage into the stomach, using a blunt-ended needle, at a single dose of 10 mg/kg (10 μL/g body weight). To reduce variation in absorption upon oral administration, mice were fasted for 2–3 h before dosing. […]
Ibogaine, noribogaine, and noribogaine glucuronide concentrations in plasma and tissue samples were determined using a liquid chromatography with tandem mass spectrometry (LC-MS/MS) method, validated for human plasma, mouse plasma, and mouse tissues. […]
A volume of 50 µL human plasma sample, a 5-fold diluted mouse plasma sample (10 uL + 40 uL control human plasma), or 100 µL homogenized tissue sample were processed. For the quantification, stable isotope labelled internal standards (IS) Ibogaine-^13C-d3 (for ibogaine) and Noribogaine-d4 (for noribogaine and noribogaine glucuronide) were used. […]

[5] = Observation of abnormal behavior or signs of acute toxicity after oral ibogaine; assay type: in vivo, mice; conditions: oral 10 mg/kg ibogaine; whole 8 h experiment and 2 h experiments; all studied mouse strains
Procedure: To study the influence of drug uptake and efflux transporters on the pharmacokinetics of ibogaine and its metabolites, we conducted a 2 h experiment, while for the assessment of CYP3A impact, the experiments were terminated at 8 h. In each experiment, six to seven mice were used per strain. Ibogaine dissolved in DMSO:saline vehicle (1:9, v/v) was orally administered to the mice by gavage into the stomach, using a blunt-ended needle, at a single dose of 10 mg/kg (10 μL/g body weight). To reduce variation in absorption upon oral administration, mice were fasted for 2–3 h before dosing. Approximately 50 μL of blood was collected from the tip of the tail in heparinized capillary tubes (Sarstedt AG & Co., Nümbrecht, Germany) at 0.125, 0.25, 0.5 and 1 h (2 h experiment), or 0.25, 0.5, 1, 2, and 4 h (8 h experiment). For the 8 h experiment, 2 h after ibogaine administration, mice had ad libitum supply of standard chow and water again. At either 2 or 8 h after dosing, mice were deeply anesthetized with isoflurane (3%), followed by cardiac puncture to collect blood (at least 600 μL) in Eppendorf tubes using heparin as an anticoagulant. […]

[6] = ref Luz and Mash, 2021; cited from earlier work
[7] = in 24 h in rats; ref Mačiulaitis et al., 2008; cited from earlier work
[8] = Abcb1a/1b;Abcg2-/- mice compared to WT, 2 h after oral 10 mg/kg ibogaine

For ibogaine [reference compound], which “Fold increase AUC0-2h” value ([1]; Abcb1a/1b;Abcg2-/- mice vs wild-type) is on record?
The value was 2.3.

What about the “Fold increase AUC0-2h” value ([1]; Abcg2-/- mice vs wild-type) of the same substance?
Its value is 1.4.

What about the Cmax ([1]; Abcb1a/1b;Abcg2-/- mice) of the same substance?
Its Cmax is 15.92 ± 9.16 ng/mL.

What about the Tmax ([1]; Abcb1a/1b;Abcg2-/- mice) of the same substance?
Its Tmax is 0.25 (0.125–0.25) h.

What about the Cmax ([1]; Abcg2-/- mice) of the same substance?
Its Cmax is 9.15 ± 3.69 ng/mL.

What about the Tmax ([1]; Abcg2-/- mice) of the same substance?
The Tmax was 0.125 (0.125–0.50) h.

What about the AUC0-2h ([1]; female Abcb1a/1b;Abcg2-/- mice) of the same substance?
Its AUC0-2h is 15.2 ± 8.06 ^* h*ng/mL.

What about the AUC0-2h ([1]; female Abcg2-/- mice) of the same substance?
Its AUC0-2h is 9.35 ± 3.47 ng·h/mL.

What about the AUC0-2h ([1]; female wild-type mice) of the same substance?
Its AUC0-2h is 6.48 ± 2.40 ng·h/mL.

And the Cmax ([1]; wild-type mice)?
Its Cmax is 4.92 ± 2.34 ng/mL.

And the Tmax ([1]; wild-type mice)?
The Tmax was 0.25 (0.125–2) h.

And the “Fold increase AUC0-2h” value ([1]; wild-type mice (reference))?
The value was 1.0.

And the “Fold increase AUC0-2h” value ([2]; Oatp1a/1b-/- mice vs wild-type)?
Its value is 2.1.

And the “Fold increase AUC0-2h” value ([2]; Oatp1a/1b-/-;1B1tg mice vs wild-type)?
The value was 2.3.

And the “Fold increase AUC0-2h” value ([2]; Oatp1a/1b-/-;1B3tg mice vs wild-type)?
The value was 1.6.

What about the Cmax ([2]; Oatp1a/1b-/- mice) of the same substance?
Its Cmax is 13.6 ± 8.6 ng/mL.

What about the Tmax ([2]; Oatp1a/1b-/- mice) of the same substance?
The Tmax was 0.125 (0.125–0.50) h.

And the Cmax ([2]; Oatp1a/1b-/-;1B1tg mice)?
Its Cmax is 18.3 ± 15.0 ng/mL.

And the Tmax ([2]; Oatp1a/1b-/-;1B1tg mice)?
The Tmax was 0.125 h.

What about the Cmax ([2]; Oatp1a/1b-/-;1B3tg mice) of the same substance?
Its Cmax is 18.0 ± 17.7 ng/mL.

What about the Tmax ([2]; Oatp1a/1b-/-;1B3tg mice) of the same substance?
The Tmax was 0.125 (0.125–0.25) h.

What about the AUC0-2h ([2]; female Oatp1a/1b-/- mice) of the same substance?
Its AUC0-2h is 13.6 ± 6.97 ng·h/mL.

And the AUC0-2h ([2]; female Oatp1a/1b-/-;1B1tg mice)?
The AUC0-2h was 14.7 ± 11.3 ng·h/mL.

And the AUC0-2h ([2]; female Oatp1a/1b-/-;1B3tg mice)?
The AUC0-2h was 10.6 ± 8.27 ng·h/mL.

And the AUC0-2h ([2]; female wild-type mice)?
Its AUC0-2h is 6.48 ± 2.40 ng·h/mL.

And the Cmax ([2]; wild-type mice)?
Its Cmax is 4.92 ± 2.34 ng/mL.

And the Tmax ([2]; wild-type mice)?
Its Tmax is 0.25 (0.125–2) h.

And the “Fold increase AUC0-2h” value ([2]; wild-type mice (reference))?
Its value is 1.0.

What about the “fold increase in brain-to-plasma ratio” value [3, 8] of the same substance?
The value was 1.5 fold.

What about the “fold increase in heart-to-plasma ratio” value [3, 8] of the same substance?
The value was 1.3 fold.

And the “fold increase in kidney-to-plasma ratio” value [3, 8]?
Its value is 1.6 fold.

What about the “fold decrease in total amount (% of dose) in SIWC corrected for plasma AUC over 2 h” value ([3]; Abcb1a/1b;Abcg2-/- mice compared to WT, small intestine with fecal content, oral 10 mg/kg ibogaine, 10 mg/kg) of the same substance?
The value was ~2 fold and 2.2 fold.

What about the brain-to-plasma ratio ([3]; Abcb1a/1b;Abcg2-/- mice, 2 h after oral 10 mg/kg ibogaine) of the same substance?
The brain-to-plasma ratio was 5.2.

What about the “adipose tissue-to-plasma distribution ratio” value ([3]; WT mice, inguinal white adipose tissue, 2 h after oral 10 mg/kg ibogaine) of the same substance?
Its value is 45.3.

What about the brain-to-plasma ratio ([3]; wild-type mice, 2 h after oral 10 mg/kg ibogaine, 10 mg/kg) of the same substance?
The brain-to-plasma ratio was 3.4 and > 3.

What about the “fold reduction in liver accumulation” value [4] of the same substance?
Its value is > 2 fold.

And the “abnormal behavior or signs of acute toxicity (such as tremors or flat body posture)” value [5]?
The value was “no abnormal behavior or signs of acute toxicity”.

What about the half-life in plasma [6] of the same substance?
The half-life in plasma was 2 to 6 h.

And the “excreted via urine and feces, % of the administered dose” value [7]?
Its value is 60–70%.
